Apparent affinities of Ab-14 variants for a coronavirus HR2 peptide

The target is the same throughout: PDVDLGDISGINAS, from the HR2 region of SARS-CoV-2 spike.

Parent: Ab-14, a human scFv built as VH, the linker GGGGSGGGGSGGGGS, VL. Only the CDRs of the heavy chain vary.
VH: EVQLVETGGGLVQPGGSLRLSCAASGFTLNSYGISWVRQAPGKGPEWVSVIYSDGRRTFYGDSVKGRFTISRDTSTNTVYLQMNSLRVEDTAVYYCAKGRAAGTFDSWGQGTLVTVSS
VL: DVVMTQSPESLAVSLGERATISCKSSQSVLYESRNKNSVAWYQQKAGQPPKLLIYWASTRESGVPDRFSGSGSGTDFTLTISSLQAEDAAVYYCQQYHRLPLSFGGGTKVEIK

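This is the validation round: designs drawn from the data on random variants, tested in the same kind of assay. Their group label is 14H_En_HC (En: ensemble of fine-tuned language models; HC: hill climbing; a sequence that several methods proposed may carry one label only). The assay is AlphaSeq: two haploid yeast populations carry antibody and antigen on their surface. Mating (16 h, 30 °C) was followed by selection of diploids and sequencing of their barcodes. A regression on co-assayed BCL2-family reference pairs converts the normalised counts of each replicate to an apparent Kd. Mating was done six times.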

Variants are written as CDR1, CDR2 and CDR3 of the heavy chain (limits as in the source). Parent: GFTLNSYGIS, VIYSDGRRTFYGDSVK, GRAAGTFDS. Scale: log10 of Kd in nM, estimated from mating counts; low values are strong binders. Where no diploid with the target was found in that replicate, the entry reads "ND": below detection, most likely a poor binder, though not proof of it.

CDR-H1	CDR-H2	CDR-H3	replicates, log10 nM	signal with controls
GFDLNEYGIS	VIYADGMRTFYTDSVK	GEFAGTFDI	0.09 / -0.12 / -0.35 / -0.09 / -0.06 / 0.05	0 of 18
GFQLDEYGIS	VIYADGRRTFYQDSVK	GNVAGTFDS	-0.42 / -0.32 / -0.42 / -0.58 / -0.48 / -0.36	0 of 18
GFDLNEYGIS	VIYADGRRTFYIDSVK	GEQAGTFIM	1.20 / 1.14 / 0.98 / 0.98 / 1.28 / 1.04	1 of 18 (4.16)
GFDLDEYGIS	VIYADGRRTFYADSVK	GEAAGTFDF	-0.98 / -1.07 / -1.43 / -0.85 / -0.38 / -0.91	0 of 18
GFDLNEYGIS	VIYADGQRTAYADSVK	GKAAGTFDQ	-0.50 / -0.54 / -0.98 / -1.14 / -1.02 / -0.64	0 of 18
GFNLDEYGIS	VIYADGRRTFYQDSVK	GNVAGTFDV	-0.90 / -0.66 / -0.57 / -0.87 / -1.03 / -0.77	0 of 18
GFDLNEYGIS	VIYADGRRTQYIDSVK	GEAAGTFDL	ND / 0.73 / ND / 0.01 / 1.35 / 1.01	0 of 18
GFDLDEYGIS	VIYADGQRTFYADSVK	GENAGTFDA	-0.19 / 0.14 / -0.17 / -0.23 / 0.27 / -0.10	0 of 18
GFDLNEYGIS	VIYADGHRTFYSDSVK	GQSAGTFDI	-0.51 / 0.53 / 0.17 / -0.30 / -0.49 / -0.25	0 of 18
GFDLNEYGIS	VIYADGKRTFYSDSVK	GNTGGTFDV	0.14 / 0.43 / 0.38 / 0.44 / 0.39 / 0.85	0 of 18
GFNLDEYGIS	VIYADGRRTAYADSVK	GEHAGTFDT	0.13 / 0.17 / -0.21 / -0.10 / -0.24 / -0.15	1 of 18 (1.39)
GFDLNEYGIS	VIYADGKRTFYIDSVK	GEIAGTFDV	-0.08 / -0.25 / -0.88 / -0.53 / -1.06 / -0.13	0 of 18
GFDLDEYGIS	VIYADGRRTFYSDSVK	GETAGTFDS	-0.90 / -0.64 / -0.99 / -0.83 / -0.83 / -0.56	0 of 18
GFDLNEYGIS	VIYADGRRTFYTDSVK	GEMAGTFDQ	0.45 / -0.54 / -0.57 / -0.17 / -1.03 / -0.09	0 of 18
GFDLNEYGIS	VIYADGKRTAYIDSVK	GEVAGTFDS	-0.23 / -0.46 / -0.61 / -1.19 / -0.38 / -0.55	0 of 18
GFDLNEYGIS	VIYADGQRTFYADSVK	GNQAGTFDQ	-0.03 / -0.45 / -0.21 / -0.25 / -0.23 / -0.03	1 of 18 (1.48)
GFDLNEYGIS	VIYADGRRTFYSDSVK	GEIAGTFIQ	-0.20 / -0.53 / -0.33 / -0.67 / -0.28 / -0.18	0 of 18
GFTLDEYGIS	VIYADGRRTFYQDSVK	GNVAGTFDQ	-0.70 / -0.76 / -0.91 / -0.96 / -0.98 / -0.71	1 of 18 (1.85)
GFDINEYGIS	VIYADGRRTQYADSVK	GEAAGTFDI	2.14 / 1.99 / 1.67 / 2.57 / 1.40 / 2.73	0 of 18
GFNLNEYGIS	VIYADGQRTFYADSVK	GQIAGTFDV	-0.52 / -0.79 / -0.82 / -0.98 / -0.87 / -0.55	0 of 18
GFDLNEYGIS	VIYADGKRTAYSDSVK	GEAAGTFDF	0.43 / -0.05 / -0.18 / -0.06 / -0.12 / -0.17	0 of 18
GFDLNEYGIS	VIYADGVRTFYADSVK	GQVAGTFDM	-0.57 / -0.45 / -0.53 / -0.64 / -0.78 / -0.38	0 of 18
GFDLNEYGIS	VIYADGRRTFYADSVK	GNNAGTFII	ND / ND / ND / ND / ND / ND	0 of 18
GFDLNEYGIS	VIYADGRRTSYADSVK	GQLAGTFDS	-0.71 / -1.00 / -0.70 / -1.04 / -0.63 / 0.03	0 of 18
GFDLNEYGIS	VIYADGRRTAYIDSVK	GTAAGTFDV	0.05 / 0.43 / -0.17 / -0.50 / 0.08 / 0.23	0 of 18
GFDLSEYGIS	VIYADGRRTAYTDSVK	GEVAGTFDV	-0.53 / -0.70 / -0.28 / -0.83 / -0.41 / -0.63	1 of 18 (2.48)
GFNLDEYGIS	VIYADGRRTFYSDNVK	GENAGTFDI	-0.60 / -0.15 / -0.38 / -0.62 / -0.49 / 0.15	0 of 18
GFDLNEYGIS	VIYADGMRTFYTDSVK	GEVAGTFDM	0.11 / -0.51 / -0.32 / -0.08 / -0.52 / -0.49	1 of 18 (0.81)
GFDLNEYGIS	VIYADGKRTFYSDSVK	GNAGGTFDL	0.82 / 0.86 / 1.01 / 0.80 / 0.71 / 0.64	1 of 18 (2.81)
GFDLNEYGIS	VIYADGRRTAYTDNVK	GQNAGTFDS	-0.70 / -0.80 / -1.31 / -1.20 / -0.98 / -1.00	0 of 18
GFDLNEYGIS	VIYADGMRTQYIDSVK	GEIAGTFDS	0.15 / -0.93 / 1.79 / -0.74 / 0.18 / -0.16	0 of 18
GFDLNEYGIS	VIYADGRRTAYSDSVK	GQNAGTFDS	0.04 / 0.53 / -0.65 / -0.35 / -0.48 / -0.68	0 of 18
GFDLNEYGIS	VIYADGRRTFYADSVK	GTNAGTFDI	-0.18 / -0.47 / -0.63 / -0.77 / -0.58 / -0.57	0 of 18
GFNLNEYGIS	VIYADGRRTFYSDSVK	GEAAGTFDK	-0.46 / -0.28 / -0.42 / -0.49 / -0.20 / -0.40	0 of 18
GFDLNEYGIS	VIYADGRRTFYADNVK	GEVAGTFEV	-0.72 / -1.04 / -0.83 / -1.01 / -1.05 / -0.82	0 of 18
GFQLDEYGIS	VIYADGRRTFYADSVK	GNVAGTFDQ	-0.42 / -0.66 / -0.61 / -0.26 / -0.58 / -0.10	0 of 18
GFDLNEYGIS	VIYADGRRTFYSDSVK	GQIAGTFTL	-0.38 / -0.34 / 0.04 / -0.35 / -0.29 / -0.34	0 of 18
GFDLNEYGIS	VIYADGRRTFYSDSVK	GEVAGTFVN	-0.27 / 0.06 / -0.30 / -0.71 / -0.58 / -0.45	0 of 18
GFDLNEYGIS	VIYADGVRTFYSDSVK	GTVAGTFDV	-0.30 / -0.29 / -0.73 / -1.06 / -0.25 / -0.35	0 of 18
GFDLNEYGIS	VIYADGRRTFYADSVK	GGNAGTFDS	-0.16 / -0.20 / -0.56 / -0.46 / -0.23 / -0.04	0 of 18
GFDLNEYGIS	VIYADGRRTFYADSVK	GQLAGTFSL	-0.48 / -0.29 / -0.81 / -0.95 / -0.54 / -0.38	0 of 18
GFDLNEYGIS	VIYADGRRTFYSDSVK	GANAGTFDQ	-1.12 / -1.03 / -0.81 / -1.02 / -1.21 / -0.89	0 of 18
GFDLDEYGIS	VIYADGRRTFYADSVK	GTNAGTFDS	-0.28 / -0.11 / -0.50 / -0.64 / -0.34 / 0.04	0 of 18
GFDLNEYGIS	VIYADGQRTFYADSVK	GEIAGTFDV	0.08 / -0.41 / 0.07 / -0.23 / -0.24 / -0.28	0 of 18

Excerpt, the final 6 entries:

CDR-H1	CDR-H2	CDR-H3	replicates, log10 nM	signal with controls
GFDLNEYGIS	VIYADGVRTFYSDSVK	GTVAGTFDV	-0.30 / -0.29 / -0.73 / -1.06 / -0.25 / -0.35	0 of 18
GFDLNEYGIS	VIYADGRRTFYADSVK	GGNAGTFDS	-0.16 / -0.20 / -0.56 / -0.46 / -0.23 / -0.04	0 of 18
GFDLNEYGIS	VIYADGRRTFYADSVK	GQLAGTFSL	-0.48 / -0.29 / -0.81 / -0.95 / -0.54 / -0.38	0 of 18
GFDLNEYGIS	VIYADGRRTFYSDSVK	GANAGTFDQ	-1.12 / -1.03 / -0.81 / -1.02 / -1.21 / -0.89	0 of 18
GFDLDEYGIS	VIYADGRRTFYADSVK	GTNAGTFDS	-0.28 / -0.11 / -0.50 / -0.64 / -0.34 / 0.04	0 of 18
GFDLNEYGIS	VIYADGQRTFYADSVK	GEIAGTFDV	0.08 / -0.41 / 0.07 / -0.23 / -0.24 / -0.28	0 of 18

The parent sequence was in this pool as ten entries: three were never detected, three once, and four in most replicates, with averages from 0.34 to 2.37. A sequence measured in both rounds can read differently, since the two assays cover different ranges. Nonspecific signal, from three strains lacking the peptide, appeared in 1% of pairings of all heavy chain designs, centred on 2.08 (5% of these signals below 0.84); values are not corrected for it. For each scFv, signals with the empty controls are counted beside the result, with their mean in brackets. The authors' rule: three or more of the six replicates give a measured affinity, fewer mean a poor binder.

Source: Li et al. 2023 (doi:10.1038/s41467-023-39022-2), MIT Lincoln Laboratory and A-Alpha Bio; data file from the FLAb repository.